The values that follow come from patent US20030108924A1.

The assay deals with KCNQ1 cardiac potassium channel (KvLQT1), full-length (UniProt P51787). The experiment in a line: cell-based or functional assay.

For “wild-type KCNE1 (cardiac potassium channel minK subunit polypeptide, D85 form)”, the increase of current after the 10th pulse of a depolarizing pulse train worked out at 3.3 fold, the time constant for activation at +40 mV (first time constant) is 220 ms, the time constant for activation at +40 mV (second time constant) came to 1430 ms and the time constant of deactivation (tail currents at -50 mV after activation at +60 mV) was 469 ms. Moreover, the voltage-dependence of activation, V1/2 was 13.4 mV.
